# Results published in patent US20200316038A1, “METHODS AND COMPOSITIONS FOR TREATING UREA CYCLE DISORDERS, IN PARTICULAR OTC DEFICIENCY” (CAMP4 THERAPEUTICS CORPORATION, priority 2017, published 2020).
# Tested on: NAGS
smiles,measurement,value
OCCn1cc(-c2ccc3c(c2)CC/C3=N\O)c(-c2ccncc2)n1 [GDC-0879],"NAGS expression, Fold change (Log 2) vs untreated",0.85 Log 2
